Measured affinities in a library of Ab-91 heavy chain variants

The measurements come from Engelhart et al. 2022 (doi:10.1038/s41597-022-01779-4) through the FLAb antibody collection.

Target: peptide PDVDLGDISGINAS, taken from heptad repeat 2 (HR2) of SARS-CoV-2 spike.

Parent scFv Ab-91: VL joined to VH by a 15-residue (Gly4Ser)3 linker. Changes lie in the heavy chain CDRs alone.
VL: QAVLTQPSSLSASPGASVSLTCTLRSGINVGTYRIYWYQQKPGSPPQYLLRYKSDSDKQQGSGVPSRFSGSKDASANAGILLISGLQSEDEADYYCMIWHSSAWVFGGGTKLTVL
VH: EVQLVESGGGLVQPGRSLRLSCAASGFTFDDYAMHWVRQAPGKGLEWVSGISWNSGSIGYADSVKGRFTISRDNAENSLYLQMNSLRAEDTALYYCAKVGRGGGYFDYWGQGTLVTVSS

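The starting antibody came from a phage panning campaign against this peptide. AAYL51 was designed without a model: most single CDR substitutions and a random sample of double and triple ones. The scFvs were displayed on barcoded MATa yeast, the peptide on MATalpha yeast. The frequency of each diploid, read from paired DNA barcodes, reflects how well the two displayed proteins bind. Scores were corrected for input abundance and mapped to Kd with protein pairs of known affinity run in the same pool. There are three technical replicates.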

Substitutions are numbered in sequence along the VH above, starting at 1 (not Kabat).
Scale: log10 of Kd in nM, estimated from mating counts; low values are strong binders.
Averages over replicates are reported, and they cover detected replicates only.
An entry "not detected" has no value in the source: the pair was not observed among the diploids in any replicate. This suggests poor binding but is not conclusive.
Order: sorted from the lowest average up, undetected variants last.
Background: pairings of library AAYL51 with three empty control strains gave a value in 21% of cases (median 4.54, 5th percentile 3.26). Values in that range, when seen in few replicates, are hard to tell from nonspecific mating.

"mean, log10 nM",detected,changes
2.48,3/3,T28N/D62Q/G104W
2.77,1/3,G50S/N54H/Y108F
2.77,3/3,W53H/F106L
3.04,3/3,D30R/Y32F/S57G
3.37,2/3,Y32N/S63H
3.46,1/3,S52G/G59L/Y105V
3.65,1/3,D30E/H35D/D62P
3.69,1/3,D31Q/M34C/Y105A
3.87,1/3,G26T/G50R/D62E
3.98,1/3,G26D/V64F/Y108L
4.04,1/3,S52F/G56E/D107G
4.04,1/3,A61G/G100Q/R101I
4.05,3/3,H35Y/A61V
4.07,1/3,Y32L/M34P/G50M
4.27,2/3,A33M/N54Y/F106G
4.31,1/3,H35G/S52V/Y60F
4.46,1/3,I51M/S55K/G102A
4.47,1/3,T28K/G50Y
4.54,2/3,A33M/M34N/G56Y
4.55,2/3,G50C/G56C/G103W
4.56,2/3,A33K/M34E/D107S
4.67,1/3,G26K/D30M/M34V
4.68,1/3,D30W/A61R/D62W
4.70,2/3,Y32K/H35L/G102F
4.75,2/3,I51Q/S52I/G103C
4.76,2/3,I58Q/Y60L/D62K
4.86,3/3,T28C/G59S/A61T
5.11,1/3,Y32E/I51P/Y108Q
5.11,3/3,G26H/S57P/G102I
5.12,2/3,S57L/R101S/G102L
5.13,3/3,H35T/I58C/K65T
5.21,2/3,H35E/I51A/G56W
5.22,3/3,N54P/G56L
5.36,1/3,I51R/Y105H/F106P
5.37,3/3,T28Y/S63P/D107L
6.30,1/3,N54W/Y60Q/R101G
not detected,0/3,H35A/I51N/I58S
not detected,0/3,F29C/N54W/Y60R
not detected,0/3,D31R/V64D/R101Y
not detected,0/3,F27M/Y32F/K65L
not detected,0/3,H35E/S55Y/G103I
not detected,0/3,W53K/I58D/G104I
not detected,0/3,S52H/S55Y/F106R
not detected,0/3,I51R/S55E/D107S
not detected,0/3,A61V/V64E/G103Y
not detected,0/3,T28S/S52D/K65V
not detected,0/3,D31E/H35Q/G104E
not detected,0/3,F27L/D31K/Y105R
not detected,0/3,T28N/S55W/D107M
not detected,0/3,F27N/V99E/D107C
not detected,0/3,D30I/G56N/V99W
not detected,0/3,I51T/G102R/G104K
not detected,0/3,G50P/I51R/Y105Q
not detected,0/3,T28S/M34Y/K65N
not detected,0/3,G103L/G104W
not detected,0/3,G103C/Y105W/F106G
not detected,0/3,D31L/I58A
not detected,0/3,F29V/W53Q/G56Y
not detected,0/3,G26F/W53I/A61H
not detected,0/3,D30H/D62Q/G100P
not detected,0/3,S57C/I58V/G103K
not detected,0/3,H35C/S52Y
not detected,0/3,A33K/V64H/V99G
not detected,0/3,F29K/S55L/G103Q
not detected,0/3,S55W/A61C/G104Y
not detected,0/3,H35G/S55M/G102M

Repeated from above, the 5 best binders with a signal in all replicates:

{"changes": "T28N/D62Q/G104W", "mean, log10 nM": "2.48", "detected": "3/3"}
{"changes": "W53H/F106L", "mean, log10 nM": "2.77", "detected": "3/3"}
{"changes": "D30R/Y32F/S57G", "mean, log10 nM": "3.04", "detected": "3/3"}
{"changes": "H35Y/A61V", "mean, log10 nM": "4.05", "detected": "3/3"}
{"changes": "T28C/G59S/A61T", "mean, log10 nM": "4.86", "detected": "3/3"}